Test results published in patent US7598219B2, “Implants comprising an osteoinductive factor and a contrast agent compatible therewith” (Warsaw Orthopedic, Inc., priority 2006, dated 2009).

Test system: rhBMP-2 induced bone formation
Assay: Rat ectopic model: subcutaneous rhBMP-2/collagen sponge implants with contrast media, graded by palpation, radiography and histology
Type: in vivo, athymic rat
Set-up: key to RADIOGRAPHY GRADE: 0: No bone detected; 1+: Some bone; 2+: Moderate bone detected; 3+: Good bone detected; 4+: Excellent bone detected; 5+: Excellent bone detected (larger piece); key to HISTOLOGY GRADE: 0: no bone or marrow; 0.5: only trace amounts of bone; 1: bone and marrow, approximately 20% of implant area; 2: bone and marrow, approximately 40% of implant area; 3: bone and marrow, approximately 60% of implant area; 4: bone and marrow, approximately 80% of implant area; 5: bone and marrow, approximately 100% of implant area; key to PALPATION GRADE: Hard Bone; Soft; Partially Resorbed; Completely Resorbed
Settings: 28 days
Protocol: Initial in vitro and cadaver tests verified the potential of using contrast media to visualize the INFUSE® Bone Graft implant on fluoroscopic radiographic images. Applicants evaluated the rehydration of the lyophilized rhBMP-2 powder with contrast media instead of the recommended sterile water. A reconstituted solution that consisted of 97% contrast media was applied to a 0.5 cc collagen sponge to produce a graft with a rhBMP-2 concentration of 0.1 mg/cc and implanted subcutaneously on the thoracic cavity of athymic rats. At four weeks, the rats were euthanized and the implants removed. The explants were graded by manual palpation, radiography, and histology.
This aspect of the invention was designed to evaluate the ability of rhBMP-2 to induce de novo bone in the presence of various contrast media in the rat ectopic model. 200 μL of a 0.1 mg/ml rhBMP-2 solution was applied to 0.5 cc collagen sponge discs (Kensey Nash, Exton, Pa.). After a 15-minute soak time, the rhBMP-2/collagen was implanted into a subcutaneous (SC) tissue pocket above the rib cage muscle of an athymic rat. There were four implants per rat. Contrast media represented 97% of the rhBMP-2 fluid suspension applied to the collagen disc. The rhBMP-2 buffer served as a control test fluid. The three commercially available contrast media used in this study were Conray®, Optiray® (Mallinckrodt Imaging Tyco Healthcare, Hazelwood, Mo.), and Omniscan™ (GE Healthcare, Princeton, N.J.). The study protocol was evaluated and approved by the Institutional Animal Care and Use Committee of the Atlanta Veterans Affairs Medical Center.
A 4.0 mg/ml rhBMP-2 solution was made by withdrawing 1.8 ml of sterile WFI and reconstituting a 7.2 mg vial of lyophilized rhBMP-2 protein powder to create a stock solution. This solution was diluted 1:34 (v/v) with contrast media to reach the final rhBMP-2 concentration (0.1 mg/cc) used in the rat ectopic model with ACS. (Reddi A. H., 69 Proc Natl Acad Sci USA, 1601 (1972); Urist, M. R., 150 Science, 893 (1965); Wozney J. M., et al., 242 Science, 1528 (1988)). 7 μl of 4.0 mg/ml rhBMP-2 solution was mixed with 233 μL of Conray®, Omniscan™, or Optiray®. 233 μL of the rhBMP-2 buffer served to dilute the rhBMP-2 control sample.
The implants were set-up in 6-well plates clearly labeled with the implant and animal identification number. A 0.5 cc collagen disc was placed in a single well. 200 μL of 0.1 mg/cc rhBMP-2 in 97% contrast media/3% sterile water was applied to the collagen disc 15 minutes prior to implantation.
Animals were weighed, anesthetized, and surgically prepared prior to implantation. Preparation for implantation included shaving the abdomen and thorax, and scrubbing these areas with liberal amounts of ChlorohexiDerm™ scrub (DVM Pharmaceuticals, Miami, Fla.). The excess scrub was removed with gauze soaked in ChlorohexiDerm. All animals received four SC implants on the ventral thoracic region in the sterile environment of a surgical suite, and remained under isoflurane anesthesia for the duration of the procedure.
After placing the animal in dorsal recumbency, four incisions (˜5 mm in length) were made in each quadrant of the thoracic region (upper right, upper left, lower left, and lower right). The closed tip of the scissors was inserted and spread apart within the SC space. This created a space sufficient to accommodate the implant samples, which were placed with forceps in the SC tissue pocket above the rib cage muscle. Each test implant was placed in each of the four locations listed above in a clockwise rotation. After the implants were placed, the skin around the wound was closed with resorbable suture. All animals were given a SC injection of Nacel (0.8 mg/kg) prior to being placed on their sides in clean, dry cages and observed until they regained their righting reflex.
Animals on study were fed ad libitum and observed daily throughout the study. […]

[1] = athymic rat SC implant, 0.1 mg/mL rhBMP-2, 97% contrast media, collagen sponge, one value per animal (1394-1397)
[2] = semi-quantitative score 0-5, rat SC implants

B1: rhBMP-2 alone: Recombinant human Bone Morphogenetic Protein-2, 0.1 mg/mL, diluted with rhBMP-2 buffer, on collagen sponge; control implant (protein, UniProt P12643 283-396, looked up)
Bone morphogenetic protein 2: QAKHKQRKRLKSSCKRHPLYVDFSDVGWNDWIVAPPGYHAFYCHGECPFPLADHLNSTNHAIVQTLVNSVNSKIPKACCVPTELSAISMLYLDENEKVVLKNYQDMVVEGCGCR
HISTOLOGY GRADE [1]: 3 (2×) and 4 and 5 | PALPATION GRADE [1]: Hard Bone | RADIOGRAPHY GRADE [1]: 4+ (2×) and 5+ (2×) | cross-sectional area of the implant consisting of bone and marrow (indicated by the mean histology score, rat SC implants): roughly 80% | mean radiographic (Faxitron) score (out of 5, rat SC implants, Conray: three implants that were identified): 4.5 | mean bone induction score (histology) [2]: 3.8 | range of bone induction score (histology) [2]: 3-5

Several values for one entry are separate records, joined by “and”; a condition that tells them apart may be missing. Identical values can stand only once.
